Earlier results as cited in patent publication US10676746B2, “Methods for identifying therapeutic targets and treating monitoring cancers” (Fred Hutchinson Cancer Research Center, priority 2013, dated 2020).
Where two headings read alike, the source gives them in different places.

Tested on: cancer cell lines
Conditions: read-out: median IC50, cited from earlier work

O=C1NC(=O)c2c1c(-c1ccccc1Cl)cc1[nH]c3ccc(O)cc3c21
IC50 (p53 mutant SCC cells (n=34)): 5.34 µM | IC50 (p53 mutant, 499 cell lines excluding SCC lines): 12.8 µM
